In general, pIC50 refers to the negative decadic logarithm of the IC50, by convention in mol/L.

Sequences of proteins named here, by UniProt entry; tags and fusion partners are left off. A change or cut given only in a name is not applied to a line headed by its entry. Residues count along the entry.
UniProt P42336, whole entry: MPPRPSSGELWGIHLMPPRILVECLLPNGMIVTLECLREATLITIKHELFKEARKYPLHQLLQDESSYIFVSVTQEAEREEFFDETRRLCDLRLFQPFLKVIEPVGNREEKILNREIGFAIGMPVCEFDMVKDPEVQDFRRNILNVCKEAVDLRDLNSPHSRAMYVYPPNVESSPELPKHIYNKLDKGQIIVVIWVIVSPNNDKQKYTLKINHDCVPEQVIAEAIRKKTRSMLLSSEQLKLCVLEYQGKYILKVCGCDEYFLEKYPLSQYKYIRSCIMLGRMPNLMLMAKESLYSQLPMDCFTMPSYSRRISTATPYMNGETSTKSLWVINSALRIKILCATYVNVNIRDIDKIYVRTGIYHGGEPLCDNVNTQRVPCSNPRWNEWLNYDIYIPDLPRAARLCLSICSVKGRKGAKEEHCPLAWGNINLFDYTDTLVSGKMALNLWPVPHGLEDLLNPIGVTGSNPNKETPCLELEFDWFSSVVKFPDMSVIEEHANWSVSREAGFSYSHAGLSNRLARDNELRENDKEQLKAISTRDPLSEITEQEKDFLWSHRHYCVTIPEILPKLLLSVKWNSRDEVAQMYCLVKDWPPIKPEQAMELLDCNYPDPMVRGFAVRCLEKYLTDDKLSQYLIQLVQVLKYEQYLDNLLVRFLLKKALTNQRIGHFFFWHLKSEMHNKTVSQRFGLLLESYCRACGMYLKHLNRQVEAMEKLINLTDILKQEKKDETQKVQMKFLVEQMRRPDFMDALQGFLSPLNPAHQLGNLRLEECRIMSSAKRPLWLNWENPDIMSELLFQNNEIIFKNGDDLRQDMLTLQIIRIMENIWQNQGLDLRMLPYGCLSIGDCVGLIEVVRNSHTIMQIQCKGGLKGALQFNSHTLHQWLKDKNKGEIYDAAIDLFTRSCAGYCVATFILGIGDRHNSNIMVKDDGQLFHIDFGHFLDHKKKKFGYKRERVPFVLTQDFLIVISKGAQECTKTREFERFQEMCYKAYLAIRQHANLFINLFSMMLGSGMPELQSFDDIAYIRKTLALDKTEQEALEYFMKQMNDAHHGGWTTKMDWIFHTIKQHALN
UniProt P42336, whole entry H1047R: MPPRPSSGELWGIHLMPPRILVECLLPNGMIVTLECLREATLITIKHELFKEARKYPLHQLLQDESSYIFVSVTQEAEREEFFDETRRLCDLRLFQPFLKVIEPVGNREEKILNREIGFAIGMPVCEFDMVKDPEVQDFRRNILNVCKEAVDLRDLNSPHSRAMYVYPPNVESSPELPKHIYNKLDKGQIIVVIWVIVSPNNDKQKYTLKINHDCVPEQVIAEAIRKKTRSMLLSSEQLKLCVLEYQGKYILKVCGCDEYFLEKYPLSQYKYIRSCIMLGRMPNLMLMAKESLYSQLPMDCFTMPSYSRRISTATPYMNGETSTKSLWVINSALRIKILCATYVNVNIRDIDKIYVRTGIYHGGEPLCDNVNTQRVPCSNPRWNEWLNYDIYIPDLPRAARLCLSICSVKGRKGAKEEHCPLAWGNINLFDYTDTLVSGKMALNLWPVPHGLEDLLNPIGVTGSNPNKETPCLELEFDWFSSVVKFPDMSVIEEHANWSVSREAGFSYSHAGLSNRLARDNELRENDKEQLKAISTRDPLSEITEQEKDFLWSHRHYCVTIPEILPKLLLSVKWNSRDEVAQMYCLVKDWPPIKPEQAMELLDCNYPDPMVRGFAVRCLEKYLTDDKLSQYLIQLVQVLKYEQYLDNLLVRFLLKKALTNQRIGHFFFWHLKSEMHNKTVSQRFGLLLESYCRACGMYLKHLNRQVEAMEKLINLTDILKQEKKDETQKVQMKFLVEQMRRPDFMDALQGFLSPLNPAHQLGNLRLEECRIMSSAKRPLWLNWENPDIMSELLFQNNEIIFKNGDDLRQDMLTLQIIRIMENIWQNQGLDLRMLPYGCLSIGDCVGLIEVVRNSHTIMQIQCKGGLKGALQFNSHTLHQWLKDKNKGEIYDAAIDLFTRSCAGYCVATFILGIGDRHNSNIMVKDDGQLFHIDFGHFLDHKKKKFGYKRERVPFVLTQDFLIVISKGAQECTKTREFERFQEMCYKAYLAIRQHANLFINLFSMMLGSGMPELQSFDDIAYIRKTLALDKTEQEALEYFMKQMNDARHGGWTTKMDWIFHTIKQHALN
UniProt P27986, 2-724 partner limits assumed: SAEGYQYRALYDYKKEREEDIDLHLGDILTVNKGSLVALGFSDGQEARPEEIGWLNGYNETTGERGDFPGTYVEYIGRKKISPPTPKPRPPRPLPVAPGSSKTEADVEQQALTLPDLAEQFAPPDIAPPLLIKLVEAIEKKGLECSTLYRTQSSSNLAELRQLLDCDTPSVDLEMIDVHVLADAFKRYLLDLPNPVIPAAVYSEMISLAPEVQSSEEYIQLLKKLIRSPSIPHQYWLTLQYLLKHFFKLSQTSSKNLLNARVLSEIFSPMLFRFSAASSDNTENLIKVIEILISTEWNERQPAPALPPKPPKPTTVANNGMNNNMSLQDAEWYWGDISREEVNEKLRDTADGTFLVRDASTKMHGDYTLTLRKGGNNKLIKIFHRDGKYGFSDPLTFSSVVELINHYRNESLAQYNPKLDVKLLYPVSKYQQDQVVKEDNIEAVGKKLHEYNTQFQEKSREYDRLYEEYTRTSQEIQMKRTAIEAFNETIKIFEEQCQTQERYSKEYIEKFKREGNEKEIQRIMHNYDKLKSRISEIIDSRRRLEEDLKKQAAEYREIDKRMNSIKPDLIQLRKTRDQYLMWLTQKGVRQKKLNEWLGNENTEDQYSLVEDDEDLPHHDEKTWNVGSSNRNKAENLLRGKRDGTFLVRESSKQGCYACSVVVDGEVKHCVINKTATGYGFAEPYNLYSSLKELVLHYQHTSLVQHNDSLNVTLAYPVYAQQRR

pIC50: −log10 of the molar value. Where only a bound is given, the exact number is not on record here.

Assay [1] deals with PI3Kα (Homo sapiens, UniProt P42336). The assay can be described thus: PI3Kα enzyme assay (Transcreener ADP2 TR-FRET Red Assay). The conditions noted are these: read-out: PI3Kα WT IC50; purified recombinant full-length protein; 2 hours pre-incubation with compound. As for the experimental part:
(§1) Activity against PI3Kα and PI3Kα H1047R enzymes were determined in biochemical assays using purified recombinant full-length proteins with the Transcreener ADP^2 TR-FRET Red Assay from Bellbrook Labs. (Catalogue number 3011-10K). Test compounds were dissolved in DMSO and were tested in 11 point 1:3 serial dilutions, typical final concentration range from 50,000 nM to 0.85 nM. Enzymes were pre-incubated with compounds for 2 hours at room temperature prior to initiating the reactions. Assays were initiated with a 2×ATP/PI(4,5)P2 diC8 substrate mixture. After 60 minutes at room temperature, the reactions were quenched with detection reagent and incubated for an additional 60 minutes at room temperature. The plates were read using a multimode reader and the emission ratio of 665 nm to 615 nm was determined. This ratio was converted to percent of control (POC). [1-(high control-sample signal)/(high control-low control)]*100. Wells without compound were used to determine high control values and wells without enzyme were used to determine low control values. The POC values were fit using a four-parameter logistic model and the value where the fit curve was equal to 50 POC was reported as the IC50 using the Signals VitroVivo software package (PerkinElmer). Final assay conditions were: 40 mM HEPES pH 7.5, 20 mM NaCl, 25 mM MgCl2, 0.01% Triton X-100. […]
In general terms: In TR-FRET formats the signal depends on donor and acceptor labels being close together.

Assay [2] deals with PI3Kα H1047R (Homo sapiens, UniProt P42336, H1047R). Description: PI3Kα H1047R enzyme assay (Transcreener ADP2 TR-FRET Red Assay). The conditions noted are these: read-out: PI3Kα H1047R IC50; purified recombinant full-length protein; 2 hours pre-incubation with compound. As for the experimental part:
as §1

For assay [3], the system named is T47D (PI3Kα-H1047R) cell line. Description: HTRF phospho-AKT(S473) cell assay in T47D cells. As to conditions: read-out: T47D IC50, 2 hours compound incubation. How it is done: (§2) Compounds in the present disclosure were tested in a cell based HTRF phospho-AKT(S473) (CisBio/Revvity) assay in human breast cancer cell lines as a measurement of PIK3CA activity through measuring AKT, a downstream effector. The activity of mutant PI3Kα-H1047R and PI3Kα-Wild Type was measured in the T47D (PI3Kα-H1047R) and SKBR3 (PI3Kα-Wild Type) cell lines, respectively. T47D cells were plated at 20,000 cells per well in 50 μL in RPMI medium supplemented with 10% FBS and 0.2 units/mL insulin, in 384 well plates. SKBR3 cells were plated at 25,000 cells per well in 50 μL in McCoy's 5A medium supplemented with 10% FBS, in 384 well plates. Cells were plated using a Combi Multidrop reagent dispenser (ThermoFisher), and placed in 5% CO2, 37° C. incubator overnight to adhere.
(§3) The next day, cells were treated with either compounds or vehicle (DMSO) in a 12-fold dose response curve of 1:3 dilutions, with 5 μM and 10 μM as the top concentrations for the T47D and SKBR3 cell lines, respectively. Compound treatment was facilitated via the D300e digital dispenser (Tecan), with a maximum DMSO concentration of 0.5%. Following compound addition, cell plates were incubated for 2 hours in 5% CO2, 37° C. incubator. […]
(§4) The following day, plates were centrifuged for 1 minute at 1000 rpm, and read on a PHERAstar plate reader. IC50 values were calculated using Spotfire software.

Assay [4] concerns SKBR3 (PI3Kα-Wild Type) cell line. The assay can be described thus: HTRF phospho-AKT(S473) cell assay in SKBR3 cells. The conditions noted are these: read-out: SKBR3 IC50, 2 hours compound incubation, PDGF-BB stimulated. As for the experimental part: as §2, §3, §4

For `Cc1cc(C(C)Nc2ccccc2S(=O)(=O)NC(=O)C(F)F)c2nc(N3Cc4ccc(F)cc4C3)n(C)c(=O)c2c1` (single isomer, unassigned), the pIC50 in assay [1] is under 6.00; in assay [2], under 6.00; in assay [3] it was 5.30 to 6.00; in assay [4], under 5.30.

The values above are taken from patent US12281122B1, “PI3K inhibitors” (Cogent Biosciences, Inc., priority 2023, dated 2025).
